The values that follow come from ChEMBL document CHEMBL6127153, “Hybrids of Membrane-Translocating Antimicrobial Peptides Show Enhanced Activity through Membrane Permeabilization” (ACS Med Chem Lett, 2024).

For orientation: MIC means the least concentration at which growth counts as inhibited.

Active and inactive are the calls of the source. No cut-off for these calls is given here. Some results are limits rather than exact numbers.

The test system of one data set is Escherichia coli. The data set is described as follows: Antibacterial activity against Escherichia coli Top10 assessed as inhibition of bacterial growth at 100 uM incubated for 3 hrs by radial diffusion assay. The class given is functional, organism-based.
For data set [1], the system named is Bacillus subtilis. The data set is described as follows: Antibacterial activity against Bacillus subtilis ATCC6051 assessed as inhibition of bacterial growth at 100 uM incubated for 3 hrs by radial diffusion assay. The class given is functional, organism-based.
Data set [2] concerns Bacillus subtilis. The data set can be described thus: Antibacterial activity against Bacillus subtilis ATCC6051 assessed as inhibition of bacterial growth incubated for 1 hr followed by TSB addition and measured after 18 to 24 hrs by microbroth dilution assay. The class given is functional. The conditions noted are these: time 19-25 hrs. For orientation: Dilution methods test growth across graded concentrations, often in twofold steps.

The test system of data set [3] is Cell membrane. The data set can be described thus: Induction of membrane permeabilization in Escherichia coli assessed as increase in fluorescence intensity at 2 uM by PI staining based fluorescence spectrophotometric analysis. Format: subcellular.
Data set [4] relates to Cell membrane. The data set can be described thus: Induction of membrane translocation in Escherichia coli spheroplasts assessed as increase in fluorescence intensity using FITC-labeled compound by confocal microscopy. Format: subcellular.
The subject of a further data set is HEK293. The data set can be described thus: Cytotoxicity against HEK293 cells assessed as effect on cell metabolic activity at 18.2 uM incubated for overnight by MTS assay. The conditions noted are these: human, hek293, 18.2 µM. The class given is toxicity, cell-based. A general note: Formazan colour is commonly taken as a measure of viable cells.

Take `CC[C@H](C)[C@H](NC(=O)[C@H](CCCNC(=N)N)NC(=O)[C@@H](NC(=O)[C@H](CCCCN)NC(=O)[C@H](CCCCN)NC(=O)[C@H](CC(N)=O)NC(=O)[C@H](CC(=O)O)NC(=O)[C@H](CCCNC(=N)N)NC(=O)[C@H](C)N)[C@@H](C)O)C(=O)N[C@@H](Cc1c[nH]c2ccccc12)C(=O)N1CCC[C@H]1C(=O)N[C@@H](CCCNC(=N)N)C(=O)N[C@@H](Cc1cnc[nH]1)C(=O)N[C@@H](CC(C)C)C(=O)N[C@@H](CCC(N)=O)C(=O)N[C@@H](CC(C)C)C(=O)N[C@@H](C)C(=O)N[C@H](C(=O)N[C@@H](CCCNC(=N)N)C(=O)N[C@@H](CC(N)=O)C(=O)O)C(C)C`: the outcome in the data set with Escherichia coli, in the data set with Bacillus subtilis [1], in the data set on Cell membrane [3] and in the data set on Cell membrane [4] was Active. Further, the MIC in the data set with Bacillus subtilis [2] is greater than 18.2 µM. Further, the Activity entry with HEK293 is on record as “Non-Toxic”.
